For 93 molecules, inhibition results are on record in PubChem BioAssay AID743397 (Broad Institute, 2014).

This is a selection; strong and weak results do not stand in their true shares. Some structures show a salt or complex split into parts, the way the source records it. Activity calls are given as the source filed them.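 The calls were made as follows: active = mean replicate inhibition of at least 30% and at least 1% of replicates passing that level; inconclusive = only one of the two criteria is met; inactive = neither criterion is met.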

In general, inhibition refers to the relative decrease from the control value, in per cent.

For the test, the system named is Voltage-dependent L-type calcium channel subunit alpha-1D (CaV1.3) ICDI/IQ interaction. In words: Primary screen for inhibitors of IQ motif and Ca2+-dependent inactivation inhibitor domain binding in CACNA1D, Förster resonance energy transfer in living cells, single-concentration test (AID 743397).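 Also: 0% = median of the neutral control wells.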 The following applies: HEK cells, CFP/YFP FRET ICDI-IQ, plate reader, 10 min; at 12.3 µM; active compounds read high; percent FRET-ratio fall versus neutral wells.
For the molecule `CC(C)(C)c1ccc(OP(C)(=O)Nc2ccc(SC(F)(F)F)cc2)cc1` (stereo not drawn), the inhibition is inactive: -5.73%.

Turning to `Cc1cccc(C)c1OP(C)(N)=O` (stereo not drawn), the inhibition is inactive: -4.22%.

As to `O=[N+]([O-])c1ccc2c(c1)C=Nc1ccccc1O2`, the inhibition is inactive: -18.6%.

In the case of `O=[N+]([O-])c1cc([N+](=O)[O-])c(Nc2cccnc2)c([N+](=O)[O-])c1`, the inhibition is inactive: -7%.

As for `COc1ccccc1OP(C)(=O)Nc1cc(Cl)ccc1C` (stereo not drawn), the inhibition is inactive: -3.37%.

On to `COc1ccc(OP(C)(=O)Nc2cccc(F)c2)cc1` (stereo not drawn), for which the inhibition is inactive: -5.42%.

For the molecule `Cc1cc(C)cc(OP(C)(N)=O)c1` (stereo not drawn), the inhibition was inactive: -7.03%.

With `CCOC(=O)c1ccc(NP(C)(=O)Oc2ccccc2)cc1` (stereo not drawn), the inhibition is inactive: -2.15%.

Regarding `COc1ccccc1OP(C)(=O)Nc1ccc(C)cc1` (stereo not drawn), the inhibition is inactive: -6.86%.

As for `Cc1ccc(NP(C)(=O)Oc2ccccc2)c(C)c1` (stereo not drawn), the inhibition is inactive: -4.35%.

Consider `CCN(CC)CCCOC(=O)C(O)(c1ccccc1)c1ccccc1`, for which the inhibition is inactive: -8.97%.

For the molecule `COc1ccccc1-c1ccccn1.O=[N+]([O-])c1cc([N+](=O)[O-])c(O)c([N+](=O)[O-])c1`, the inhibition is inactive: -5.44%.

With `CCc1ccc(OP(C)(=O)N2CCN(c3ccc([N+](=O)[O-])cc3)CC2)cc1` (stereo not drawn), the inhibition is inactive: -19.5%.

Take `CP(=O)(NC(=O)Nc1ccccc1)Oc1ccccc1` (stereo not drawn): the inhibition is inactive: -7.93%.

In the case of `Cc1cc(C)cc(OP(C)(=O)Nc2ccc(SC(F)(F)F)cc2)c1` (stereo not drawn), the inhibition is inactive: -4.8%.

Turning to `CP(=O)(Nc1ccc(SC(F)(F)F)cc1)Oc1ccc(Cl)cc1` (stereo not drawn), the inhibition is inactive: -4.94%.

Turning to `Cc1cccc(C)c1OP(C)(=O)Nc1ccc(SC(F)(F)F)cc1` (stereo not drawn), the inhibition is inactive: -5.41%.

Regarding `CP(=O)(Oc1ccccc1)OC(c1ccccc1)C(F)(F)F` (stereo not drawn), the inhibition was inactive: -6.3%.

As for `CP(=O)(Nc1ccccn1)Oc1ccc(Cl)cc1` (stereo not drawn), the inhibition was inactive: -7.03%.

Turning to `CCOP(C)(=S)SCC(=O)NC(C)C(=O)O` (stereo not drawn), the inhibition is inactive: -4.36%.

On to `O=[N+]([O-])c1cc([N+](=O)[O-])c(O)c([N+](=O)[O-])c1.c1ccc(Oc2ccncc2)cc1`, for which the inhibition was inactive: -17%.

Regarding `CCOC(=O)c1ccc(NP(C)(=O)Oc2ccc(OC)cc2)cc1` (stereo not drawn), the inhibition is inactive: -5.24%.

As for `COc1ccccc1OP(C)(=O)Nc1ccccc1` (stereo not drawn), the inhibition was inactive: -20.2%.

On to `CP(=O)(Nc1ccccc1Br)Oc1ccccc1` (stereo not drawn), for which the inhibition was inactive: -4.32%.

As to `CP(=S)(Nn1cnnc1)Oc1ccccc1` (stereo not drawn), the inhibition is inactive: -3.92%.

Turning to `O=[N+]([O-])c1cc([N+](=O)[O-])c(Nc2nnnn2CCO)c([N+](=O)[O-])c1`, the inhibition is inactive: -16.7%.

For the molecule `CCOC(=O)C(CC)C1=NC(C)(C)Cc2ccccc21.O=[N+]([O-])c1cc([N+](=O)[O-])c(O)c([N+](=O)[O-])c1` (stereo not drawn), the inhibition was inactive: -1.75%.

With `CP(=O)(Nc1ccc(SC(F)(F)F)cc1)Oc1ccccc1` (stereo not drawn), the inhibition was inactive: -2.97%.

For `CCCOc1ccc(NP(C)(=O)Oc2ccc(Cl)cc2)cc1` (stereo not drawn), the inhibition was inactive: -5.06%.

For the molecule `COc1ccc(-c2ccccn2)cc1.O=[N+]([O-])c1cc([N+](=O)[O-])c(O)c([N+](=O)[O-])c1`, the inhibition was inactive: -11.4%.

Take `CN1CCCCC1COC(=O)C1(O)c2ccccc2CCc2ccccc21` (stereo not drawn): the inhibition was inactive: -17.6%.

Consider `COc1ccccc1OP(C)(=O)Nc1c(C)cccc1C` (stereo not drawn), for which the inhibition was inactive: -3.95%.

Take `CN(Cc1cccnc1)C(=O)COc1ccc(Cl)c(Cl)c1.O=[N+]([O-])c1cc([N+](=O)[O-])c(O)c([N+](=O)[O-])c1`: the inhibition is inactive: -4.82%.

As for `O=[N+]([O-])c1cc([N+](=O)[O-])c(-n2nnc3ccccc32)c([N+](=O)[O-])c1`, the inhibition was inactive: -6.43%.

In the case of `Cc1nc2ccc3ccccc3c2s1.O=[N+]([O-])c1cc([N+](=O)[O-])c(O)c([N+](=O)[O-])c1`, the inhibition is inactive: -4.28%.

As for `O=[N+]([O-])c1cc([N+](=O)[O-])c(-c2cnn(-c3ccccc3)c2)c([N+](=O)[O-])c1`, the inhibition is inactive: -12.8%.

Take `Cc1cc(C)cc(OP(C)(=O)Nc2ccc(C)cc2C)c1` (stereo not drawn): the inhibition is inactive: -5.98%.

Consider `CCOC(=O)c1ccc(NP(C)(=O)Oc2cc(C)cc(C)c2)cc1` (stereo not drawn), for which the inhibition was inactive: -2.87%.

As for `COc1ccccc1OP(C)(=O)Nc1cccc(Br)c1` (stereo not drawn), the inhibition is inactive: -6.28%.

Turning to `CP(=O)(Nc1cccc(Br)c1)Oc1ccccc1` (stereo not drawn), the inhibition is inactive: 6.72%.

As for `Cc1ccc(C)c(NP(C)(=O)Oc2ccccc2)c1` (stereo not drawn), the inhibition was inactive: -0.0515%.

Take `O=C(O)c1cccc(Nc2c([N+](=O)[O-])cc([N+](=O)[O-])cc2[N+](=O)[O-])c1`: the inhibition was inactive: -5.69%.

As for `CC1=NCCc2c1[nH]c1ccccc21.O=[N+]([O-])c1cc([N+](=O)[O-])c(O)c([N+](=O)[O-])c1`, the inhibition is inactive: -16.4%.

Turning to `COc1ccc(OP(C)(=O)Nc2ccc(SC(F)(F)F)cc2)cc1` (stereo not drawn), the inhibition is inactive: -4.42%.

`CCOC(=O)c1ccc(NP(C)(=O)Oc2ccc(F)cc2)cc1` (stereo not drawn): the inhibition was inactive: -4.31%.

Turning to `CCN(CC)CCCNc1ccccc1[N+](=O)[O-].O=[N+]([O-])c1cc([N+](=O)[O-])c(O)c([N+](=O)[O-])c1`, the inhibition is inactive: -10.7%.

As for `CCCCCOc1ccc(NP(C)(=O)Oc2ccc(Cl)cc2Cl)cc1` (stereo not drawn), the inhibition was inactive: -2.25%.

Regarding `O=[N+]([O-])c1cc([N+](=O)[O-])c(OC2CCCCC2O)c([N+](=O)[O-])c1` (stereo not drawn), the inhibition is inactive: -4.75%.

As to `CP(=O)(Nc1ccccc1)Oc1ccc(F)cc1` (stereo not drawn), the inhibition is inactive: -2.11%.

Turning to `CCN(CC)CCCOC(=O)C(O)(c1ccccc1)C1CCCCC1` (stereo not drawn), the inhibition was inactive: -9.99%.

As for `Cc1c([N+](=O)[O-])cc([N+](=O)[O-])c(Br)c1[N+](=O)[O-]`, the inhibition was inactive: -6.37%.

Regarding `CC(C)c1ccc(OP(C)(=O)Nc2ccc(SC(F)(F)F)cc2)cc1` (stereo not drawn), the inhibition is inactive: -3.94%.

In the case of `CP(=O)(Nc1ccccc1F)Oc1ccccc1` (stereo not drawn), the inhibition was inactive: -9.16%.

On to `O=[N+]([O-])c1cc([N+](=O)[O-])c(Nc2ccc(Cl)cc2)c([N+](=O)[O-])c1`, for which the inhibition was inactive: -9.52%.

With `COc1ccc2c(c1O)-c1c(O)c(OC)cc3c1[C@H](C2)[N+](C)(C)CC3.O=[N+]([O-])c1cc([N+](=O)[O-])c([O-])c([N+](=O)[O-])c1[O-]`, the inhibition was inactive: -6.05%.

With `O=C(OCCN1CCN(CCOCc2ccccc2)CC1)C(O)(c1ccccc1)c1ccccc1`, the inhibition was inactive: -2.19%.

Consider `O=C(OC1CN2CCC1CC2)c1ccc([N+](=O)[O-])cc1` (stereo not drawn), for which the inhibition was inactive: 3.55%.

As to `CCOP(C)(=S)SCC(=O)NC(C)(CC)C(=O)O` (stereo not drawn), the inhibition is inactive: -4.29%.

With `CP(=O)(Nc1ccc(SC(F)(F)F)cc1)Oc1ccc(F)cc1` (stereo not drawn), the inhibition is inactive: -1.17%.

For the molecule `O=[N+]([O-])c1cc([N+](=O)[O-])c(C(F)(F)F)c([N+](=O)[O-])c1O`, the inhibition was inactive: -11.6%.

On to `CP(=O)(Nc1ccc2c(c1)OCCO2)Oc1ccccc1` (stereo not drawn), for which the inhibition is inactive: -6.8%.

Turning to `COc1ccc(NP(C)(=O)Oc2ccccc2OC)cc1` (stereo not drawn), the inhibition was inactive: -4.69%.

Consider `CN(C)CCOC(=O)C(O)(c1ccccc1)C1CCCCC1` (stereo not drawn), for which the inhibition is inactive: -7.03%.

As to `COc1ccc(OP(C)(=O)Nc2cccc(Br)c2)cc1` (stereo not drawn), the inhibition is inactive: -4.12%.

For the molecule `Cc1c(C(c2ccc3c(c2)OCO3)c2c(C)n(C)n(-c3ccccc3)c2=O)c(=O)n(-c2ccccc2)n1C.O=[N+]([O-])c1cc([N+](=O)[O-])c(O)c([N+](=O)[O-])c1`, the inhibition was inactive: 4.97%.

In the case of `Cc1cc(-c2cccc3ccccc23)c(C)cn1.O=[N+]([O-])c1cc([N+](=O)[O-])c(O)c([N+](=O)[O-])c1`, the inhibition was inactive: -5.6%.

Consider `O=[N+]([O-])c1cc([N+](=O)[O-])c(NCC2CCS(=O)(=O)C2)c([N+](=O)[O-])c1` (stereo not drawn), for which the inhibition was inactive: -3.82%.

For `O=[N+]([O-])c1ccc(OP2(=O)COCCO2)cc1` (stereo not drawn), the inhibition is inactive: -8.29%.

`CP(=O)(OC12CC3CC(CC(C3)C1)C2)OC12CC3CC(CC(C3)C1)C2`: the inhibition is inactive: -4.97%.

As for `CCOC(=O)c1ccc(NP(C)(=O)Oc2ccc(Cl)cc2)cc1` (stereo not drawn), the inhibition is inactive: -4.25%.

`Nc1ccc2c(ccc3cccnc32)n1.O=[N+]([O-])c1cc([N+](=O)[O-])c(O)c([N+](=O)[O-])c1`: the inhibition is inactive: 6.42%.

As to `CP(=O)(Oc1ccccc1)N1CCOC1=O` (stereo not drawn), the inhibition is inactive: -4.76%.

As to `CCc1ccc(OP(C)(=O)Nc2cccnc2)cc1` (stereo not drawn), the inhibition is inactive: 6.12%.

Take `COc1ccccc1OP(C)(=O)Nc1c(C)n(C)n(-c2ccccc2)c1=O` (stereo not drawn): the inhibition was inactive: -4.64%.

Take `O=C(OCCCN1CCCC1)C(O)(c1ccccc1)C1CCCCC1` (stereo not drawn): the inhibition is inactive: -4.23%.

For `CCN(CC)CC(O)COC(=O)C(O)(c1ccccc1)C1CCCCC1` (stereo not drawn), the inhibition was inactive: -5.57%.

For `COc1ccc(OP(C)(=O)Nc2ccc(Br)cc2)cc1` (stereo not drawn), the inhibition is inactive: -4.18%.

Turning to `CN(C)C(=O)c1c([N+](=O)[O-])cc([N+](=O)[O-])cc1[N+](=O)[O-]`, the inhibition was inactive: 9.15%.

With `CC(C)(C)c1ccc(OP(C)(=O)O)cc1`, the inhibition is inactive: -10.8%.

As to `COc1ccccc1OP(C)(=O)Nc1ccccc1Br` (stereo not drawn), the inhibition was inactive: 4.45%.

For the molecule `CN(C)CCOC(=O)C(O)(c1ccccc1)C1CCCC1` (stereo not drawn), the inhibition is inactive: -5.48%.

Take `COc1ccc(OP(C)(=O)Nc2ccccn2)cc1` (stereo not drawn): the inhibition was inactive: -4.06%.

`COc1ccccc1OP(C)(=O)Nc1ccc(Br)cc1` (stereo not drawn): the inhibition is inactive: -2.06%.

As to `CP(=O)(Nc1ccccn1)Oc1ccccc1` (stereo not drawn), the inhibition was inactive: -0.702%.

On to `COc1ccccc1OP(C)(=O)Nc1ccc(C)cc1C` (stereo not drawn), for which the inhibition was inactive: -4.46%.

For the molecule `O=[N+]([O-])c1cc([N+](=O)[O-])c(Nc2ccccn2)c([N+](=O)[O-])c1`, the inhibition is inactive: 3.95%.

Turning to `Cc1c(NP(C)(=O)Oc2ccc(C(C)C)cc2)c(=O)n(-c2ccccc2)n1C` (stereo not drawn), the inhibition is inactive: -3.98%.

As to `COc1ccc(OP(C)(=O)Nc2ccccc2Br)cc1` (stereo not drawn), the inhibition was inactive: -6.95%.

As to `O=C1C(O)=C([N+](=O)[O-])C(=O)C(O)=C1[N+](=O)[O-]`, the inhibition was inactive: -5.2%.

As to `Cc1cc(C)cc(OP(C)(=O)Nc2cccc(C(F)(F)F)c2)c1` (stereo not drawn), the inhibition was inactive: -5.45%.

Turning to `CP(=O)(OCCOc1ccccc1)OCCOc1ccccc1`, the inhibition was inactive: -2.1%.

On to `CCCCCCCCCCCCCCCC1C[N+](C)(C)CCOP(C)(=O)O1` (stereo not drawn), for which the inhibition was inactive: -6.44%.

With `CP(=O)(Nc1ccc(Cl)cc1Cl)Oc1ccccc1` (stereo not drawn), the inhibition is inactive: 11.6%.
